Assay results: patent US6858018B1
Only a part of the results on these compounds is given; other tests are left out.

Assay: in vitro iontophoretic delivery through excised porcine skin in flow-through cells
Conditions: 500 uA

remifentanil hydrochloride
Flux (Exp #11, 10 mg/ml in 10 mM acetic acid, 1 mg, 0.00 hrs): 0.00 μg/min/cm^2 | Flux (Exp #11, 10 mg/ml in 10 mM acetic acid, 1 mg, 1.00 hrs): 0.00 μg/min/cm^2 | Flux (Exp #11, 10 mg/ml in 10 mM acetic acid, 1 mg, 2.00 hrs): 0.00 μg/min/cm^2 | Flux (Exp #11, 10 mg/ml in 10 mM acetic acid, 1 mg, 3.00 hrs): 0.00 μg/min/cm^2 | Flux (Exp #11, 10 mg/ml in 10 mM acetic acid, 1 mg, 4.00 hrs): 0.00 μg/min/cm^2 | Flux (Exp #11, 10 mg/ml in 10 mM acetic acid, 1 mg, 5.00 hrs): 0.01 μg/min/cm^2 | Flux (Exp #11, 10 mg/ml in 10 mM acetic acid, 1 mg, 6.00 hrs): 0.01 μg/min/cm^2 | Flux (Exp #11, 10 mg/ml in 10 mM acetic acid, 1 mg, 7.00 hrs): 0.01 μg/min/cm^2 | Flux (Exp #11, 10 mg/ml in 10 mM acetic acid, 1 mg, 8.00 hrs): 0.02 μg/min/cm^2 | Flux (Exp #11, 10 mg/ml in 10 mM acetic acid, 1 mg, 9.00 hrs): 0.03 μg/min/cm^2 | Flux (Exp #11, 10 mg/ml in 10 mM acetic acid, 1 mg, 10.00 hrs): 0.06 μg/min/cm^2 | Flux (Exp #11, 10 mg/ml in 10 mM acetic acid, 1 mg, 11.00 hrs): 0.06 μg/min/cm^2 | Flux (Exp #11, 10 mg/ml in 10 mM acetic acid, 1 mg, 12.00 hrs): 0.08 μg/min/cm^2 | Flux (Exp #11, 10 mg/ml in 10 mM acetic acid, 1 mg, 13.00 hrs): 0.09 μg/min/cm^2 | Flux (Exp #11, 10 mg/ml in 10 mM acetic acid, 1 mg, 14.00 hrs): 0.11 μg/min/cm^2 | Flux (Exp #11, 10 mg/ml in 10 mM acetic acid, 1 mg, 15.00 hrs): 0.12 μg/min/cm^2 | Flux (Exp #11, 10 mg/ml in 10 mM acetic acid, 1 mg, 16.00 hrs): 0.12 μg/min/cm^2 | Flux (Exp #11, 10 mg/ml in 10 mM acetic acid, 1 mg, 17.00 hrs): 0.13 μg/min/cm^2 | Flux (Exp #11, 10 mg/ml in 10 mM acetic acid, 1 mg, 18.00 hrs): 0.15 μg/min/cm^2 | Flux (Exp #11, 10 mg/ml in 10 mM acetic acid, 1 mg, 19.00 hrs): 0.15 μg/min/cm^2 | Flux (Exp #11, 10 mg/ml in 10 mM acetic acid, 1 mg, 20.00 hrs): 0.17 μg/min/cm^2 | Flux (Exp #11, 10 mg/ml in 10 mM acetic acid, 1 mg, 21.00 hrs): 0.16 μg/min/cm^2 | Flux (Exp #11, 10 mg/ml in 10 mM acetic acid, 1 mg, 22.00 hrs): 0.18 μg/min/cm^2 | Flux (Exp #11, 10 mg/ml in 10 mM acetic acid, 1 mg, 23.00 hrs): 0.19 μg/min/cm^2 | Flux (Exp #11, 10 mg/ml in 10 mM acetic acid, 1 mg, 24.00 hrs): 0.20 μg/min/cm^2 | Flux (Exp #12, 10 mg/ml in 10 mM acetic acid, 3 mg, 0.00 hrs): 0.00 μg/min/cm^2 | Flux (Exp #12, 10 mg/ml in 10 mM acetic acid, 3 mg, 1.00 hrs): 0.00 μg/min/cm^2 | Flux (Exp #12, 10 mg/ml in 10 mM acetic acid, 3 mg, 2.00 hrs): 0.00 μg/min/cm^2 | Flux (Exp #12, 10 mg/ml in 10 mM acetic acid, 3 mg, 3.00 hrs): 0.01 μg/min/cm^2 | Flux (Exp #12, 10 mg/ml in 10 mM acetic acid, 3 mg, 4.00 hrs): 0.01 μg/min/cm^2 | Flux (Exp #12, 10 mg/ml in 10 mM acetic acid, 3 mg, 5.00 hrs): 0.02 μg/min/cm^2 | Flux (Exp #12, 10 mg/ml in 10 mM acetic acid, 3 mg, 6.00 hrs): 0.02 μg/min/cm^2 | Flux (Exp #12, 10 mg/ml in 10 mM acetic acid, 3 mg, 7.00 hrs): 0.02 μg/min/cm^2 | Flux (Exp #12, 10 mg/ml in 10 mM acetic acid, 3 mg, 8.00 hrs): 0.02 μg/min/cm^2 | Flux (Exp #12, 10 mg/ml in 10 mM acetic acid, 3 mg, 9.00 hrs): 0.02 μg/min/cm^2 | Flux (Exp #12, 10 mg/ml in 10 mM acetic acid, 3 mg, 10.00 hrs): 0.01 μg/min/cm^2 | Flux (Exp #12, 10 mg/ml in 10 mM acetic acid, 3 mg, 11.00 hrs): 0.01 μg/min/cm^2 | Flux (Exp #12, 10 mg/ml in 10 mM acetic acid, 3 mg, 12.00 hrs): 0.01 μg/min/cm^2 | Flux (Exp #12, 10 mg/ml in 10 mM acetic acid, 3 mg, 13.00 hrs): 0.01 μg/min/cm^2 | Flux (Exp #12, 10 mg/ml in 10 mM acetic acid, 3 mg, 14.00 hrs): 0.01 μg/min/cm^2 | Flux (Exp #12, 10 mg/ml in 10 mM acetic acid, 3 mg, 15.00 hrs): 0.02 μg/min/cm^2 | Flux (Exp #12, 10 mg/ml in 10 mM acetic acid, 3 mg, 16.00 hrs): 0.02 μg/min/cm^2 | Flux (Exp #12, 10 mg/ml in 10 mM acetic acid, 3 mg, 17.00 hrs): 0.03 μg/min/cm^2 | Flux (Exp #12, 10 mg/ml in 10 mM acetic acid, 3 mg, 18.00 hrs): 0.03 μg/min/cm^2 | Flux (Exp #12, 10 mg/ml in 10 mM acetic acid, 3 mg, 19.00 hrs): 0.04 μg/min/cm^2 | Flux (Exp #12, 10 mg/ml in 10 mM acetic acid, 3 mg, 20.00 hrs): 0.04 μg/min/cm^2 | Flux (Exp #12, 10 mg/ml in 10 mM acetic acid, 3 mg, 21.00 hrs): 0.05 μg/min/cm^2 | Flux (Exp #12, 10 mg/ml in 10 mM acetic acid, 3 mg, 22.00 hrs): 0.06 μg/min/cm^2 | Flux (Exp #12, 10 mg/ml in 10 mM acetic acid, 3 mg, 23.00 hrs): 0.07 μg/min/cm^2 | Flux (Exp #12, 10 mg/ml in 10 mM acetic acid, 3 mg, 24.00 hrs): 0.08 μg/min/cm^2 | Flux (Exp #13, 2.5 mg/ml in 10 mM acetic acid, 0.75 mg, 0.00 hrs): 0.00 μg/min/cm^2 | Flux (Exp #13, 2.5 mg/ml in 10 mM acetic acid, 0.75 mg, 1.00 hrs): 0.00 μg/min/cm^2 | Flux (Exp #13, 2.5 mg/ml in 10 mM acetic acid, 0.75 mg, 2.00 hrs): 0.00 μg/min/cm^2 | Flux (Exp #13, 2.5 mg/ml in 10 mM acetic acid, 0.75 mg, 3.00 hrs): 0.00 μg/min/cm^2 | Flux (Exp #13, 2.5 mg/ml in 10 mM acetic acid, 0.75 mg, 4.00 hrs): 0.01 μg/min/cm^2 | Flux (Exp #13, 2.5 mg/ml in 10 mM acetic acid, 0.75 mg, 5.00 hrs): 0.01 μg/min/cm^2 | Flux (Exp #13, 2.5 mg/ml in 10 mM acetic acid, 0.75 mg, 6.00 hrs): 0.01 μg/min/cm^2 | Flux (Exp #13, 2.5 mg/ml in 10 mM acetic acid, 0.75 mg, 7.00 hrs): 0.01 μg/min/cm^2 | Flux (Exp #13, 2.5 mg/ml in 10 mM acetic acid, 0.75 mg, 8.00 hrs): 0.02 μg/min/cm^2 | Flux (Exp #13, 2.5 mg/ml in 10 mM acetic acid, 0.75 mg, 9.00 hrs): 0.03 μg/min/cm^2 | Flux (Exp #13, 2.5 mg/ml in 10 mM acetic acid, 0.75 mg, 10.00 hrs): 0.04 μg/min/cm^2 | Flux (Exp #13, 2.5 mg/ml in 10 mM acetic acid, 0.75 mg, 11.00 hrs): 0.05 μg/min/cm^2 | Flux (Exp #13, 2.5 mg/ml in 10 mM acetic acid, 0.75 mg, 12.00 hrs): 0.06 μg/min/cm^2 | Flux (Exp #13, 2.5 mg/ml in 10 mM acetic acid, 0.75 mg, 13.00 hrs): 0.07 μg/min/cm^2 | Flux (Exp #13, 2.5 mg/ml in 10 mM acetic acid, 0.75 mg, 14.00 hrs): 0.08 μg/min/cm^2 | Flux (Exp #13, 2.5 mg/ml in 10 mM acetic acid, 0.75 mg, 15.00 hrs): 0.09 μg/min/cm^2 | Flux (Exp #13, 2.5 mg/ml in 10 mM acetic acid, 0.75 mg, 16.00 hrs): 0.10 μg/min/cm^2 | Flux (Exp #13, 2.5 mg/ml in 10 mM acetic acid, 0.75 mg, 17.00 hrs): 0.10 μg/min/cm^2 | Flux (Exp #13, 2.5 mg/ml in 10 mM acetic acid, 0.75 mg, 18.00 hrs): 0.11 μg/min/cm^2 | Flux (Exp #13, 2.5 mg/ml in 10 mM acetic acid, 0.75 mg, 19.00 hrs): 0.11 μg/min/cm^2 | Flux (Exp #13, 2.5 mg/ml in 10 mM acetic acid, 0.75 mg, 20.00 hrs): 0.12 μg/min/cm^2 | Flux (Exp #13, 2.5 mg/ml in 10 mM acetic acid, 0.75 mg, 21.00 hrs): 0.12 μg/min/cm^2 | Flux (Exp #13, 2.5 mg/ml in 10 mM acetic acid, 0.75 mg, 22.00 hrs): 0.11 μg/min/cm^2 | Flux (Exp #13, 2.5 mg/ml in 10 mM acetic acid, 0.75 mg, 23.00 hrs): 0.12 μg/min/cm^2 | Flux (Exp #13, 2.5 mg/ml in 10 mM acetic acid, 0.75 mg, 24.00 hrs): 0.11 μg/min/cm^2 | Flux (Exp #14, 20 mg/ml in 10 mM acetic acid, 2 mg, 0.00 hrs): 0.00 μg/min/cm^2
